# Results from patent US20220152045A1 (priority 2012, published 2022).
# Where “and” joins values, the source holds several entries; their conditions need not be identical. Equal entries are not always repeated. Where two headings read alike, the source gives them in different places.
# Tests used:
# [1] = system: surgery patients at the age of 65 or older; details: with remifentanil hydrochloride
# [2] = system: surgery patients at the age of 20 or older and younger than 65; details: with remifentanil hydrochloride
# [3] = system: surgery patients at the age of 65 or older; details: Group D, Compound B 4 mg/kg/h i.v. continuous, with remifentanil hydrochloride
# [4] = system: surgery patients at the age of 20 or older and younger than 65; details: Group B, Compound B 12 mg/kg/h i.v. continuous, with remifentanil hydrochloride
# patients = assay: Clinical trials of the Examples taken together (85 cases of patients in total)
# [5] = after stopping the administration, Examples 2 and 4, elderly adult or not
compound,measurement,setting,value
"COC(=O)CC[C@@H]1N=C(c2ccccn2)c2cc(Br)ccc2-n2c(C)cnc21.O=S(=O)(O)c1ccccc1 [Compound B, Methyl 3-[(4S)-8-bromo-1-methyl-6-(2-pyridinyl)-4H-imidazo[1,2-a][1,4]benzodiazepin-4-yl]propanoate benzenesulfonate]",Time until loss of consciousness (average value),"[1]; Group C1, Compound B 4 mg/kg/h (Table 5 prints 6) i.v. continuous",115.2 s
same,Time until loss of consciousness (average value),"[1]; Group C2, Compound B 8 mg/kg/h (Table 5 prints 12) i.v. continuous",72.5 s
same,Time until loss of consciousness (average value),"[1]; Group C3, Compound B 12 mg/kg/h (Table 5 prints 21) i.v. continuous",57.6 s
same,Time until loss of consciousness (average value),"[2]; Group A1, Compound B 6 mg/kg/h i.v. continuous, benzenesulfonate",108.0 s and 108.2 s
same,Time until loss of consciousness (average value),"[2]; Group A2, Compound B 12 mg/kg/h i.v. continuous",70.3 s
same,Time until loss of consciousness (average value),"[2]; Group A3, Compound B 21 mg/kg/h i.v. continuous",65.8 s
same,Time until loss of consciousness (average value),"[2]; Group A4, Compound B 30 mg/kg/h i.v. continuous",65.4 s
same,Time until loss of consciousness (average value),[3],100.3 s
same,Time until loss of consciousness (average value),[4],72.8 s
"methyl 3-[(4S)-8-bromo-1-methyl-6-(2-pyridinyl)-4H-imidazo[1,2-a][1,4]benzodiazepin-4-yl]propanoate or a salt thereof",Angialgia,patients; 85 cases of patients in total,not observed
same,"Hypotension whose causal relationship with the active ingredient cannot be denied, number of cases",patients; 85 cases of patients in total,9 cases
same,Average time until it was determined that the patient can leave the surgery room,patients; [5],≤ 30 min
same,Average time until the patient opened eyes,patients; [5],≤ 15 min
